This is an account of results in PubChem BioAssay AID1259318 (Sanford-Burnham Center for Chemical Genomics, 2017).

Protein sequences, listed by entry. Tags and fused reporters are not part of them. Lines headed by an entry give the natural chain unless they say otherwise; changes in a name come on top.
UniProt P20393: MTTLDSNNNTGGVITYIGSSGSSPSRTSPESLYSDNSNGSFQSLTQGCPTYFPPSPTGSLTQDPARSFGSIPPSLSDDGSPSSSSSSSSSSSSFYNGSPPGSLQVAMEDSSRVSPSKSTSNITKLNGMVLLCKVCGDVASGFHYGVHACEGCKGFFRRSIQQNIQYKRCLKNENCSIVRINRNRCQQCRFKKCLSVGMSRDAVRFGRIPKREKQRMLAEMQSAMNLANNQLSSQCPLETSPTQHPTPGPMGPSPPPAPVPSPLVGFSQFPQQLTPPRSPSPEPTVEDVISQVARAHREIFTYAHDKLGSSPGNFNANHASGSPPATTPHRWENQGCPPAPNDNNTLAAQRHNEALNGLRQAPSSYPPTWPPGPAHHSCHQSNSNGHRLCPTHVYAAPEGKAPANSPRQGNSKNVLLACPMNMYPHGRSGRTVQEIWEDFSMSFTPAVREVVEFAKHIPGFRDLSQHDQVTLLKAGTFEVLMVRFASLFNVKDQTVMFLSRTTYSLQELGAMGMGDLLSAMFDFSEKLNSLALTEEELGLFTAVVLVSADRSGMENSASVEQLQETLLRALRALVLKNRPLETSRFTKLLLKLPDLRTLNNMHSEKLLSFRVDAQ

The entries are a selection whose mix differs from that of the whole data set. Activity calls are given as the source filed them.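 How the source made its calls: active means activity above about 14% (limit read from the data; passing the limit was not always enough); inactive means the rest.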

The target in this assay is Nuclear receptor subfamily 1 group D member 1 (Homo sapiens) (UniProt P20393). Put plainly: Rev-erbα–DNA interaction modulation – biochemical, FITC-DNA, fluorescence polarization, uHTS, primary screen (AID 1259318).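 Further: 0% = DMSO wells with 35 nM protein and 100% = DMSO wells with 750 nM protein.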 Conditions: Rev-erbα–FITC-DNA binding, 90 min, at 10 µM, hits give high values. In general terms: In fluorescence polarisation assays a small probe gives low polarisation when free and higher when bound to something large.
For the compound `COc1cc(C(=O)NCC2(N3CCOCC3)CCCCC2)cc(Cl)c1OC(C)C`, the activity is inactive: 2.86%.

For `O=[As](O)(O)c1cccnc1`, the activity was inactive: -0.76%.

As for `O=C(OC1CN2CCC1CC2)c1ccc(Cl)cc1` (centres undefined), the activity was inactive: 0.28%.

In the case of `CCOP(=O)(Nc1cccc2ccccc12)OCC`, the activity is inactive: 1.13%.

For `COc1cc(C2NCCC3(OCCO3)C2(C)C)cc(OC)c1OC` (centres undefined), the activity was inactive: -3.65%.

As to `CCCOP(=S)(Nc1nc(N)cc(=O)[nH]1)OCCC`, the activity is inactive: 0.86%.

As for `Cc1ccc(NCCc2c([N+](=O)[O-])cc([N+](=O)[O-])cc2[N+](=O)[O-])cc1`, the activity was inactive: 0.42%.

In the case of `Nc1cccc2c([As](=O)(O)O)cccc12`, the activity is inactive: -18%.

As for `CC(C)(C)C(=O)NC(Sc1ncccn1)C(Cl)(Cl)Cl` (centres undefined), the activity was inactive: 12.1%.

Take `O=P1(N(CCCl)CCCl)NCCC(C(F)(F)F)O1` (centres undefined): the activity is inactive: -5.86%.

Take `Clc1n[nH]nc1-c1nn[nH][15n]1`: the activity is inactive: 5.31%.

Consider `CN(CCCl)Cc1cc(Cl)c(NC2=NCCN2)c(Cl)c1`, for which the activity is inactive: 1.81%.

Take `CCOP(=O)(Nc1ccc(C)cn1)OCC`: the activity was inactive: 0.37%.

For `CCOP(=O)(NC(=NC(C)c1ccccc1)NC(C)c1ccccc1)OCC` (centres undefined), the activity is inactive: 1.56%.

As for `O=P1(Nc2ccccn2)COc2ccccc2OC1`, the activity is inactive: 1.15%.

Consider `CCC1=CC2Cc3nc4ccc(Cl)cc4c(N)c3C(C1)C2` (centres undefined), for which the activity was inactive: -1.59%.

`CC1(CBr)Cn2c(nc3ccccc3c2=O)S1` (centres undefined): the activity is inactive: -4.33%.

Turning to `CN(C(=O)Cc1ccc(Cl)c(Cl)c1)C1CCCC[C@@H]1N1CCCC1` (some centres undefined), the activity is inactive: 0%.

For the compound `CC(C)/C=N\N=C(\N)N[N+](=O)[O-]`, the activity was inactive: 1.15%.

As for `CN(C(=O)Cc1ccc(Cl)c(Cl)c1)[C@@H]1CCCC[C@H]1N1CCCC1`, the activity was inactive: 4.99%.

`COc1ccccc1CNC(=O)COC(=O)C(O)(c1ccccc1)c1ccccc1`: the activity was inactive: 1.2%.

On to `CCCC1OP(=O)(Nc2ccccc2)OCC1CC` (centres undefined), for which the activity was inactive: -8.6%.

Take `O=C(/C=C/c1ccccc1)OC1CN2CCC1CC2` (centres undefined): the activity was inactive: -6.87%.

With `CN(C)C1(CNC(=O)c2ccc(S(C)(=O)=O)cc2)CCCCC1`, the activity was inactive: 5.09%.

For the compound `CC1CCC(C(C)C)C(OP(=O)(Nc2ccccn2)c2ccccc2)C1` (centres undefined), the activity was inactive: -1.99%.

Turning to `Cc1ccc(C(=O)OC2CN3CCC2CC3)cc1` (centres undefined), the activity is inactive: -8.84%.

With `Cc1nn(-c2ccccc2)c2c1P(=O)(N1CCOCC1)N(C)C(c1ccccc1)=N2` (centres undefined), the activity was inactive: 0%.

Take `O=P1(Nc2ccc(Br)cn2)COc2ccccc2OC1`: the activity was inactive: -2.38%.

In the case of `NS(=O)(=O)c1cccc(NC(=O)COC(=O)C(O)(c2ccccc2)c2ccccc2)c1`, the activity was inactive: 7.44%.

`Cc1ccc(OCC(=O)OC2CN3CCC2CC3)cc1` (centres undefined): the activity is inactive: 0.77%.

As to `O=[As](O)(c1cccs1)c1cccs1`, the activity was inactive: 0.16%.

Take `Nc1cccc([As](=O)(O)c2ccccc2)c1`: the activity was inactive: 9.49%.

For `O=P1(Nc2ncccn2)COc2ccccc2OC1`, the activity was inactive: -1.16%.

`Cc1ccc(S(=O)(=O)N(CCCN)CCCc2c(C)nc(N)[nH]c2=O)cc1`: the activity is inactive: 0.76%.

With `Cc1cc(SC(NC(=O)c2ccccc2)C(Cl)(Cl)Cl)nc(C(C)C)n1` (centres undefined), the activity is inactive: -2.49%.

For the compound `CCCCOc1ccc(C(=O)NCC2(N3CCCCC3)CCCCC2)cc1OC`, the activity is inactive: -2.85%.

As to `COP(=O)(OC)N1CC1c1ccccc1` (centres undefined), the activity is inactive: -2.03%.

Take `CC1CCNP(=O)(N(CCCl)CCCl)O1` (centres undefined): the activity was inactive: -9.54%.

`CCOC(=O)Nc1ccc([As](=O)(O)O)c(O)c1`: the activity was inactive: 4.88%.

With `O=C(O)C(O)c1ccc(N(CCCl)CCCl)cc1` (centres undefined), the activity was inactive: -2.11%.

As for `O=[N+]([O-])c1ccc(Nc2ccc(Oc3ccc([N+](=O)[O-])cc3[N+](=O)[O-])cc2)c([N+](=O)[O-])c1`, the activity is inactive: 6.57%.

Consider `O=P(Nc1ccccn1)(c1cccc2ccccc12)c1cccc2ccccc12`, for which the activity was inactive: -0.35%.

On to `Cc1cc(SC(NC=O)C(Cl)(Cl)Cl)ncn1` (centres undefined), for which the activity is inactive: 4.11%.

On to `CCOC(=O)Nc1cccc([As](=O)(O)O)c1`, for which the activity is inactive: 4.43%.

Take `O=C(Nc1ccncc1[N+](=O)[O-])c1ccc([N+](=O)[O-])cc1[N+](=O)[O-]`: the activity is inactive: -0.8%.

For `O=C(COc1ccccc1)OC1CN2CCC1CC2` (centres undefined), the activity was inactive: -0.86%.

On to `O=C(O)C(=O)c1ccc(N(CCCl)CCCl)cc1`, for which the activity is inactive: 2.99%.

`COC(=O)C1(C)COP(=O)(N2CCCC2)OC1` (centres undefined): the activity was inactive: -3.43%.

Regarding `COP1(=S)c2c(C)nn(CCC#N)c2N=C(c2ccc(F)cc2)N1C` (centres undefined), the activity is inactive: 2.48%.

Regarding `CCC(C)N(CC(C)C)C(=S)SC(NC(C)=O)C(Cl)(Cl)Cl` (centres undefined), the activity is inactive: 2.53%.

In the case of `CCOC(=O)c1ccc(NC(=O)C(C)(CCl)SC)cc1` (centres undefined), the activity was inactive: 0.28%.

On to `O=C(OC1CN2CCC1CC2)c1cccc([N+](=O)[O-])c1` (centres undefined), for which the activity was inactive: 3.24%.

Consider `COc1cc(I)ccc1[As](=O)(O)O`, for which the activity is inactive: 1.43%.

`COc1ccc2nc(NP(=O)(c3ccccc3)c3ccccc3)sc2c1`: the activity was inactive: -0.72%.

With `O=P1(N(CCCl)CCCl)Nc2ccccc2N1`, the activity was inactive: 10.5%.

Consider `O=P1(N(CCCl)CCCl)OCCCN1CCCl` (centres undefined), for which the activity was inactive: -2.6%.

For `Cc1cc(=O)[nH]c(N[N+](=O)[O-])n1`, the activity was inactive: 0.87%.

Take `O=C(OC1CN2CCC1CC2)C12CC3CC(CC(C3)C1)C2` (centres undefined): the activity is inactive: -2.28%.

For `Cc1c2c(nc3ccccc13)SC(C(Cl)Cl)C2` (centres undefined), the activity was inactive: 0.36%.

Turning to `COc1ccc(N/C(=N/P(=O)(N2CCOCC2)N2CCOCC2)N2CCOCC2)cc1`, the activity was inactive: 2.81%.

On to `O=[N+]([O-])c1cc(Oc2ccc([N+](=O)[O-])cc2C(F)(F)F)cc([N+](=O)[O-])c1`, for which the activity is inactive: 2.48%.

Regarding `Cc1ccc2nc3c(c(C)c2c1)CC(C(Cl)Cl)S3` (centres undefined), the activity was inactive: 3.14%.

On to `[N-]=[N+]=NC1CCCCC1NC(=O)c1cc([N+](=O)[O-])cc([N+](=O)[O-])c1` (centres undefined), for which the activity was inactive: -0.89%.

As for `Cc1ccc(OP(=O)(Nc2ccc([N+](=O)[O-])cn2)Oc2ccc(C)cc2)cc1`, the activity is inactive: 1%.

In the case of `COc1cc(C(=O)NCC2(N3CCOCC3)CCCCC2)ccc1OCC(C)C`, the activity is inactive: 5.99%.

For the compound `O=[N+]([O-])c1ccc(-c2cc([N+](=O)[O-])c(O)c([N+](=O)[O-])c2)cc1`, the activity is inactive: -3.72%.

As to `C[As](=O)(O)c1cccc(C(=O)O)c1`, the activity was inactive: 2.42%.

As for `O=[As](O)(c1ccc(O)cc1)c1ccccc1O`, the activity was inactive: -6.08%.

Consider `CCN(CC)C(=S)SC(NC=O)C(Cl)(Cl)Cl` (centres undefined), for which the activity was inactive: 1.67%.

For the compound `O=C(OC1CN2CCC1CC2)c1cccc2[nH]cnc12` (centres undefined), the activity was inactive: -3.02%.

`CC(C)NC(=O)NP(=O)(Oc1ccccc1)Oc1ccccc1`: the activity was inactive: 5.65%.

Take `CC(C)c1ccc(OP(=O)(Nc2ccccn2)Oc2ccccc2F)cc1` (centres undefined): the activity was inactive: 1.42%.

For `COC(=O)C1(C)COP(=O)(N2CCCCCC2)OC1` (centres undefined), the activity was inactive: 3.84%.

`ClCCSc1nnc(-c2cccnc2)o1`: the activity was inactive: 5.44%.
